Test results: patent US20190367516A1 (Bayer Pharma Aktiengesellschaft, priority 2015, published 2019)

Sequences of proteins named here, by UniProt entry; tags and fusion partners are left off.
UniProt P08172, whole entry, looked up: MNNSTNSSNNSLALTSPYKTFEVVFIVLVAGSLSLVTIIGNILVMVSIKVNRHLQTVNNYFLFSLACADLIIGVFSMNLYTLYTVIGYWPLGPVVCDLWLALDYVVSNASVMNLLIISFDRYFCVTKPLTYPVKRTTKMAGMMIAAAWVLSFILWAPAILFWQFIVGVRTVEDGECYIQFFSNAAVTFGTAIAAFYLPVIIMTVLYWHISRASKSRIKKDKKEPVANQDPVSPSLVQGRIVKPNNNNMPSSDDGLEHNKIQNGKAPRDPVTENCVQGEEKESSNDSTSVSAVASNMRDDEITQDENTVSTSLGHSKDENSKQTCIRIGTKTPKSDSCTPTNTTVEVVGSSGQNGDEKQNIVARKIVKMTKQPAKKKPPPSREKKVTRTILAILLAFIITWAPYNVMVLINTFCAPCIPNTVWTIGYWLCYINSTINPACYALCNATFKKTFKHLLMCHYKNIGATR

Legend:
[1] = target: human M2 receptor (Homo sapiens, UniProt P08172); assay: Functional M2-GIRK1/4 activation test: allosteric potency (EC50) and efficiency at EC20 acetylcholine (B-1.1); conditions: for Efficiency: boosting of the acetylcholine effect at an EC20 acetylcholine concentration; for EC50: read-out: Receptor activity EC50, acetylcholine at EC20, allosteric potency, in some cases mean values from two or more determinations
[2] = target: Human Recombinant M2 Muscarinic Acetylcholine Receptor (Homo sapiens, UniProt P08172); assay: Selectivity test, Ca2+ release (Eurofins GPCRProfiler): allosteric modulator assay, M2 (B-3.2); assay type: cell-based; conditions: for Selectivity (Shift EC50 M2/Shift EC50 M4): Table 2, quotient of allosteric shifts M2/M4

O=C(NC12CC3CC(CC(C3)C1)C2)c1cn(-c2ccc(F)cc2F)c2nc(N3CCCC3=O)ccc2c1=O
Efficiency [1]: 99.0% | EC50 [1]: 14 nM

O=C(NC12CC3CC(CC(C3)C1)C2)c1cn(-c2ccc(F)cc2F)c2nc(N3CCCC3)ccc2c1=O
Efficiency [1]: 91.0% | EC50 [1]: 17 nM

Cc1c(Cl)c(OCC(=O)N2CCN(C)CC2)nc2sc(C(=O)NC3CC3)c(N)c12
Selectivity (Shift EC50 M2/Shift EC50 M4) ([2]; test substance concentration 1 μM): 0.3 | Selectivity (Shift EC50 M2/Shift EC50 M4) ([2]; test substance concentration 10 μM): 0.8 | Selectivity (Shift EC50 M2/Shift EC50 M1) ([2]; Table 3, quotient of allosteric shifts M2/M1, test substance concentration 10 μM): 4 | Selectivity M2 versus M4 (in words) ([2]; comment on Table 2): clear tendency in favour of M4
